Experimental data from US9457003B2, “Phenyl carbamate compound and a composition for preventing or treating a nerve gas-induced disease comprising the same” (dated 2016).

Tests used:
[1] = test system: lithium-pilocarpine induced seizure in Sprague-Dawley rats; assay: Lithium-pilocarpine model for prevention study; conditions: rat, ip; for Protection %: compared to the vehicle only; for ED50 Prevention: at peak time, protection = absence of seizure grade 4-5 over 90 min
[2] = test system: lithium-pilocarpine induced status epilepticus in Sprague-Dawley rats; assay: Lithium-pilocarpine induced status epilepticus (SE) model, intervention; conditions: rat/iv, time = 0 min after the first motor seizure; for Protection % (Intervention activity): injection amount 46 mg/kg
[3] = test system: maximal electroshock seizure in ICR mice; assay: MES test (anti-excitation activity); conditions: po

Compound	Protection % (Intervention activity) [2]	Protection % ([3]; injection amount 200 mg/kg)	further results
C[C@@H](OC(N)=O)[C@H](O)c1c(Cl)cccc1Cl	^a46 (50%)	–	Protection % ([1]; injection amount 60 mg/kg): ^a60 (66.7%)
CC(C)[C@H](OC(N)=O)[C@@H](O)c1ccccc1Cl	^a46 (66.7%)	–	Protection % ([1]; injection amount 60 mg/kg): ^a60 (83.3%)
CC[C@H](OC(N)=O)[C@@H](O)c1c(Cl)cccc1Cl	^a46 (100%)	–	–
C[C@@H](OC(N)=O)[C@H](O)c1ccc(Cl)cc1Cl	^a46 (33.3%)	–	–
C[C@H](OC(N)=O)[C@@H](O)c1ccccc1I	^a46 (100%)	–	Protection % ([3]; injection amount 50 mg/kg): 50 ^a(100%); ED50 Prevention [1]: 15.3 mg/kg
C[C@H](OC(N)=O)[C@@H](O)c1ccc(Cl)cc1Cl	^a46 (66.7%)	–	Protection % ([1]; injection amount 73.6 mg/kg): ^a73.6 (100%)^
CNC(=O)OC(C)C(O)c1ccccc1Cl (racemic)	–	200 ^a(75%)	Protection % ([1]; injection amount 60 mg/kg): ^a60 (100%)
CCCNC(=O)O[C@@H](C)[C@@H](O)c1ccccc1Cl	^a46 (100%)	200 ^a(25%)	–
CC[C@H](OC(N)=O)[C@@H](O)c1ccccc1I	^a46 (100%)	–	Protection % ([3]; injection amount 100 mg/kg): 100 ^a(100%); ED50 Prevention [1]: 28.2 mg/kg
C[C@@H](OC(N)=O)[C@@H](O)c1ccccc1Cl	^a46 (100%)	–	Protection % ([1]; injection amount 60 mg/kg): ^a60 (50%)
CC(C)NC(=O)OC(C)C(O)c1ccccc1Cl (racemic)	^a46 (100%)	200 ^a(25%)	–
CCCC[C@H](OC(N)=O)[C@@H](O)c1ccc(Cl)cc1Cl	^a46 (16.7%)	–	Protection % ([3]; injection amount 100 mg/kg): 100 ^a(25%)
C[C@@H](OC(N)=O)[C@H](O)c1ccccc1Cl	^a46 (50%)	–	MES test ED50 [3]: 51.0 mg/kg; ED50 Prevention [1]: 71.9 mg/kg
CCCC[C@H](OC(N)=O)[C@@H](O)c1ccccc1Cl	–	–	Protection % ([3]; injection amount 100 mg/kg): 100 ^a(75%)
CC(C)[C@H](OC(N)=O)[C@@H](O)c1c(Cl)cccc1Cl	^a46 (66.7%)	–	Protection % ([1]; injection amount 60 mg/kg): ^a60 (83.3%)
CCCC[C@H](OC(N)=O)[C@@H](O)c1c(Cl)cccc1Cl	^a46 (83.3%)	–	Protection % ([3]; injection amount 100 mg/kg): 100 ^a(75%)

Compound	Protection % (Intervention activity) [2]	Protection % ([3]; injection amount 200 mg/kg)	further results
C[C@H](OC(N)=O)[C@@H](O)c1c(Cl)cccc1Cl	^a46 (100%)	–	MES test ED50 [3]: 25.8 mg/kg; Protection % ([1]; injection amount 35 mg/kg): ^a35 (100%)
CCCCC(OC(N)=O)C(O)c1ccccc1Cl (racemic)	–	200 ^a(100%)	–
C[C@H](OC(N)=O)[C@@H](O)c1ccccc1Cl	–	–	MES test ED50 [3]: 13.0 mg/kg; ED50 Prevention [1]: 18.0 mg/kg; ED50 Intervention [2]: 22.6 mg/kg
CC[C@H](OC(N)=O)[C@@H](O)c1ccccc1Cl	^a46 (100%)	–	Protection % ([1]; injection amount 60 mg/kg): ^a60 (100%)
CC(OC(=O)NC1CC1)C(O)c1ccccc1Cl (racemic)	^a46 (100%)	200 ^a(100%)	Protection % ([1]; injection amount 60 mg/kg): ^a60 (100%)
CCCC[C@@H](OC(N)=O)[C@H](O)c1ccccc1Cl	–	200 ^a(75%)	–
C[C@H](OC(N)=O)[C@@H](O)c1cccc(Cl)c1Cl	^a46 (50%)	–	Protection % ([1]; injection amount 73.6 mg/kg): ^a73.6 (100%)^
CCCNC(=O)O[C@H](C)[C@H](O)c1ccccc1Cl	^a46 (100%)	200 ^a(25%)	–
C[C@H](OC(N)=O)[C@@H](O)c1ccccc1F	^a46 (50%)	–	Protection % ([3]; injection amount 50 mg/kg): 50 ^a(100%); ED50 Prevention [1]: 49.3 mg/kg
CNC(=O)O[C@@H](C)[C@@H](O)c1ccccc1Cl	^a46 (100%)	–	Protection % ([3]; injection amount 100 mg/kg): 100 ^a(75%)
C[C@H](OC(=O)NC1CC1)[C@@H](O)c1ccccc1Cl	^a46 (66.7%)	200 ^a(100%)	–
CCCNC(=O)OC(C)C(O)c1ccccc1Cl (racemic)	^a46 (83.3%)	200 ^a(25%)	Protection % ([1]; injection amount 73.6 mg/kg): ^a73.6 (50%)
CCC(OC(N)=O)C(O)c1ccccc1Cl (racemic)	^a46 (50%)	–	Protection % ([3]; injection amount 100 mg/kg): 100 ^a(100%); Protection % ([1]; injection amount 60 mg/kg): ^a60 (83.3%)
CC(OC(N)=O)C(O)c1ccccc1Cl (racemic)	^a46 (83.3%)	–	ED50 Prevention [1]: 31.7 mg/kg
C[C@H](OC(N)=O)[C@H](O)c1ccccc1Cl	^a46 (66.7%)	–	–
C[C@@H](OC(=O)NC1CC1)[C@H](O)c1ccccc1Cl	^a46 (100%)	200 ^a(25%)	Protection % ([1]; injection amount 60 mg/kg): ^a60 (100%)
